From PubChem BioAssay AID488837 (National Center for Advancing Translational Sciences (NCATS), 2010) come the findings set out here.

Amino acid sequences for entries named in this document (tags omitted).
UniProt O00167, whole entry: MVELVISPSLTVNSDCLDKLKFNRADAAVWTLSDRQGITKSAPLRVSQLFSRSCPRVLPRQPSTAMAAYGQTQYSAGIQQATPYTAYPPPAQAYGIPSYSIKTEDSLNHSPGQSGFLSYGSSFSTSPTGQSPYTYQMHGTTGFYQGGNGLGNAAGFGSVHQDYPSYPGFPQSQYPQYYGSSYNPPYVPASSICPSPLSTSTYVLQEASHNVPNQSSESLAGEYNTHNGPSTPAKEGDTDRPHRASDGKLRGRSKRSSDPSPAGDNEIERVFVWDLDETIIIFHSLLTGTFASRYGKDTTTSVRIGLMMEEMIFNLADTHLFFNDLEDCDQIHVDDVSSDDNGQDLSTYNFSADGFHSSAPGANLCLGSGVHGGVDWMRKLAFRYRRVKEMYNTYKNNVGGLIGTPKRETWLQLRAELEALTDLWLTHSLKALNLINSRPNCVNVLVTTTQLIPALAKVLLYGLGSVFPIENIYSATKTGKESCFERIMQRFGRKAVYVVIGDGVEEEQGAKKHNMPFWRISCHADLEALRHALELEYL

The structures appear in SMILES notation. The list shows a part of the results, in another mix than the full data. Some of these compounds have results that are not shown, active ones among them. The source made the active and inactive calls. Calls follow the shape of the dose curve; as a rule, active = well fitted inhibition curve with a large enough effect; inconclusive = small, poorly fitted or top-dose-only effect, or effect the other way; inactive = flat fitted curve, though single readings scatter.
% is scaled to controls: 0 for no effect and ±100 for the full control effect.

The experiment has as its target Protein phosphatase EYA2 (Homo sapiens) (UniProt O00167). Briefly: qHTS Assay for Inhibitors of the Phosphatase Activity of Eya2. Particulars: recombinant Eya2, OMFP fluorescence dephosphorylation (OMFP is methylfluorescein phosphate); at 76.9 µM (top of the series). The text has this: The Eya family of proteins are essential co-activators of the Six1 transcription factor. Six1 is a developmental gene that is abnormally re-expressed in a large percentage of breast cancers. This over-expression plays a causal role in the initiation and metastatic development of breast cancers. The Eya family of proteins was also found to contain a unique HAD phosphatase domain with protein tyrosine phosphatase activity which can potentially play a role in Six1-mediated breast tumorigenesis. […] We have developed and optimized a 1536 well fluorescence-based HTS assay targeting the phosphatase activity of Eya2. Inhibitors found against Eya2 could serve as potential therapeutic tools to inhibit Six1-mediated breast tumorigenesis and to increase the efficiency of radiation and certain chemo therapy. These inhibitors could also be used as chemical probes to study the function of Eya2's phosphatase activity and its role in Six1-mediated breast tumorigenesis.
The Eya2 enzyme was kindly provided by the laboratory of Dr. Rui Zhao. The 3-O-methyl-fluorescein phosphate (OMFP) substrate and all buffer reagents were purchased from Sigma Aldrich. qHTS Assay Setup: 1. Buffer- 50 mM HEPES pH 7.5, 50 mM NaCl, 5 uM MgCl2, 0.05% BSA, 1 mM DTT. 2. OMFP Stock- 10 mM solution prepared in 100% DMSO and stored in single use aliquots at -20C. Assay Procedure- 1. Dispense 1.5 ul per well of Eya2 at 0.2 uM in black medium binding 1536 well Greiner plate 2. Transfer 23 nl of compound and control compound (EGTA) to plate 3. Incubate at ambient for 10 minutes 4. Dispense 1.5 ul per well of OMFP at 50 uM 5. Incubate at ambient for 10 minutes 6. Read on ViewLux using Excitation = 485 nm, Emission = 525 nm
On to `COc1ccc(Br)c(C(=O)NCC2(N3CCCCC3)CCCCC2)c1`, for which the activity, negative = inhibition is inactive: -28.2%. In the case of `CC(C)Oc1ccc(C(=O)NCC2(N(C)C)CCCCC2)cc1` it was inactive: 14.9%; in that of `CN(C)c1cccc(C(=O)NCC2(N(C)C)CCCCC2)c1`, inactive: 0.339%. As for `O=C(OC1CN2CCC1CC2)C(CO)(c1ccccc1)c1ccccc1` (stereo not drawn), the figure is inactive: 4.87%. As to `COc1cccc(C(=O)NCC2(N3CCCCC3)CCCCC2)c1`, the activity, negative = inhibition is inactive: 6.19%.

For `COc1ccc(Cl)cc1C(=O)NCC1(N(C)C)CCCCC1`, the activity, negative = inhibition is inactive: 5.54%.

As to `O=C(NCC1(N2CCCCC2)CCCCC1)c1cccc(Cl)c1`, the activity, negative = inhibition is inactive: 16.5%. Turning to `CN(C)C1(CNC(=O)c2ccc(Br)cc2)CCCCC1`, the activity, negative = inhibition is inactive: 5.46%. In the case of `C=CCN1CCN(CCOC(=O)C(O)(c2ccccc2)c2ccccc2)CC1`, the activity, negative = inhibition is inactive: 4.09%. `O=C(NCC1(N2CCCCC2)CCCCC1)c1cc(F)c(F)cc1Cl`: the activity, negative = inhibition was inactive: -3.04%. On to `COc1ccc(C(=O)NCC2(N(C)C)CCCCC2)cc1`, for which the activity, negative = inhibition is inactive: 7.69%. With `Cc1cc(C(=O)NCC2(N3CCCCC3)CCCCC2)ccc1[N+](=O)[O-]`, the activity, negative = inhibition was inactive: 8.67%.

`CCN1CCCC(OC(=O)C2(O)c3ccccc3C=Cc3ccccc32)C1` (stereo not drawn): the activity, negative = inhibition is inactive: -1.83%. As for `O=C(NCC1(N2CCCCC2)CCCCC1)c1cccc(Br)c1`, the figure is inactive: -24.1%; as for `Cc1ccccc1C(=O)NCC1(N2CCCCC2)CCCCC1`, inactive: -3.67%. Take `CN(C)C1CCCC1OC(=O)C(O)(c1ccccc1)c1ccccc1` (stereo not drawn): the activity, negative = inhibition is inactive: 8.22%.

For `CN(C)c1ccc(C(=O)NCC2(N(C)C)CCCCC2)cc1`, the activity, negative = inhibition is inactive: -12.7%.

As for `CCN(CC)CC(C)C(C)OC(=O)C(O)(c1ccccc1)c1ccccc1` (stereo not drawn), the activity, negative = inhibition is inactive: 7.59%.

On to `COc1cc(SC)ccc1C(=O)NCC1(N(C)C)CCCCC1`, for which the activity, negative = inhibition is inactive: -2.66%.

Regarding `CC(C)N1C(=O)CC2(CCN(CCOC(=O)C(O)(c3ccccc3)c3ccccc3)CC2)C1=O`, the activity, negative = inhibition is inactive: 3.75%. For `Cc1ccc(C(=O)NCC2(N3CCCCC3)CCCCC2)cc1`, the activity, negative = inhibition was inactive: 0.283%. As for `O=C(NCC1(N2CCCCC2)CCCCC1)c1cc([N+](=O)[O-])ccc1Cl`, the activity, negative = inhibition was inactive: -12.7%.

Consider `CN1[C@@H]2CC[C@H]1CC(OC(=O)C(O)(c1ccccc1)c1ccccc1)C2` (stereo partly drawn), for which the activity, negative = inhibition was inactive: 8.52%.
